Assay results published in patent US10508104B2, “6-hydroxy-5-(phenyl/heteroarylsulfonyl)pyrimidin-4(1H)-one as APJ agonists” (Bristol-Myers Squibb Company, priority 2016, dated 2019).

Amino acid sequences for entries named in this document (tags omitted). A change or cut given only in a name is not applied to a line headed by its entry.
UniProt P35414: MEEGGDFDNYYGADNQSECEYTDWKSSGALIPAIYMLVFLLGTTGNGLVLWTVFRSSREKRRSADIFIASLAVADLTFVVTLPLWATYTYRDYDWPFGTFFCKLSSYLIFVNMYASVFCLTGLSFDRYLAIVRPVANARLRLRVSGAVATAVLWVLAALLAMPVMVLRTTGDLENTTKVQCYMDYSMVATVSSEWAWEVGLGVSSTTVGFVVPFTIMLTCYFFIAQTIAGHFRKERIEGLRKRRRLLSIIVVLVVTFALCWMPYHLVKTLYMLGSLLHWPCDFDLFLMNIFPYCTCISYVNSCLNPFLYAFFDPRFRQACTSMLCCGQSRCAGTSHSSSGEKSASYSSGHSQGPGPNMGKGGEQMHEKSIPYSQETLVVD

Target: human APJ receptor (Homo sapiens (Human), UniProt P35414)
Test: Intracellular cAMP accumulation assay (APJ hcAMP, HTRF)
Type: cell-based
Settings: read-out: Human APJ cAMP EC50 Potency range
Protocol: Intracellular cAMP Accumulation Assay
HEK293 cells stably expressing human APJ receptor were used to assess the activity of compounds. Cultured cells were detached and resuspended in the cAMP Homogeneous Time-Resolved Fluorescence (HTRF) assay buffer (Cisbio cat; #62AM4PEJ). The assay was performed in 384-well assay plates (Perkin-Elmer; cat #6008289) according to assay protocol provided by the manufacturer. Serial dilutions of a compound together with assay buffer containing […] and 2 μM forskolin were added to each well containing 5,000 cells and incubated for 30 minutes at room temperature. Subsequently, cAMP D2 reagent was added in the lysis buffer followed by the EuK antibody (Cisbio; cat #62AM4PEJ) and incubated for 60 min. The fluorescence emission ratio was measured using fluorometer. The intracellular cAMP concentrations (compound-stimulated inhibition of forskolin-mediated cAMP production) were calculated by extrapolation from a standard curve using known cAMP concentrations. The EC50 values were obtained by fitting the data to a sigmoidal concentration-response curve with variable slope. […]
The biological activity of the exemplified compounds of this invention determined by the assay described above is shown at the end of each example.

## COc1cccc(OC)c1-n1c(CCC(C)C)nc(=O)c(S(=O)(=O)c2ccc(-c3ccc(F)nc3)cc2)c1O [Example 13, 1-(2,6-dimethoxyphenyl)-5-[4-(6-fluoropyridin-3-yl)benzenesulfonyl]-6-hydroxy-2-(3-methylbutyl)-1,4-dihydropyrimidin-4-one]
  EC50: 0.01 to 10 nM
